For 1 molecule, value/selectivity results are on record in patent US20210181183A1, “METHODS FOR DETERMINING SELECTIVITY OF TEST COMPOUNDS” (CEMM - FORSCHUNGSZENTRUM FÜR MOLEKULARE MEDIZIN GmBH, priority 2017, published 2021).

This experiment relates to CD79a+ cells over CD79a- cells of a diffuse large B-cell lymphoma patient. Briefly: ex vivo selectivity of compounds to kill cancerous versus non-cancerous cells, excised lymph node of DLBCL patient (Example 8). It is filed as cell-based, human. The following applies: fraction of live cancerous cells of live total cells relative to DMSO control; dissociated lymph node cells; <1 = selectively kills cancerous cells.

`C[C@@H]1C[C@H]2[C@@H]3CCC4=CC(=O)C=C[C@]4(C)[C@@]3(F)[C@@H](O)C[C@]2(C)[C@@]1(O)C(=O)CO` [dexamethasone]: the value/selectivity worked out at 0.87.
